# Binding of CDR-mutated scFvs to a peptide of the spike HR2 region

The measurements come from Li et al. 2023 (doi:10.1038/s41467-023-39022-2) through the FLAb antibody collection.

Antigen: PDVDLGDISGINAS, a 14-residue peptide of the SARS-CoV-2 spike HR2 region.

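The starting antibody came from a phage panning campaign against this peptide. This is the validation round: designs drawn from the data on random variants, tested in the same kind of assay. Their group label is 14H_En_Gen (En: ensemble of fine-tuned language models; Gen: genetic algorithm). Affinity was read by AlphaSeq, a pooled yeast mating assay with surface-displayed partners. After mating in shaken culture at 30 °C for 16 h, diploids were selected and their barcode pairs sequenced. Read counts were normalised to the haploid input and turned into Kd by a linear fit to BCL2-family pairs of known affinity, for each replicate. Mating was done six times.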

Parent: Ab-14, a human scFv built as VH, a 15-residue (Gly4Ser)3 linker, VL. Only the CDRs of the heavy chain vary.
VH: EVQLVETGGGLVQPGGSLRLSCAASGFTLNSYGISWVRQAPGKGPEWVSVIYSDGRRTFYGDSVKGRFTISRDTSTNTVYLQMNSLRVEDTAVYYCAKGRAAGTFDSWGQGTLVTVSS
VL: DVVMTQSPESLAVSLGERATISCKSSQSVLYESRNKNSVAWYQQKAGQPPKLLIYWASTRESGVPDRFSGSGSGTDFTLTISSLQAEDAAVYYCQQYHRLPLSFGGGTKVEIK

Each variant is given by its three heavy chain CDRs, as the data file delimits them; those of the parent are GFTLNSYGIS, VIYSDGRRTFYGDSVK, GRAAGTFDS.
The read-out is the apparent dissociation constant on a log10 scale (nM): the lower, the stronger.
Averages over replicates are reported, and they cover detected replicates only.
Where no diploid with the target was found in that replicate, the entry reads "nd": below detection, most likely a poor binder, though not proof of it.

{"CDR-H1": "GFDLDEYGIS", "CDR-H2": "VIYADGMRTAYADSVK", "CDR-H3": "GTVAGTFDL", "log10 Kd, replicates": "-0.30 -0.48 -0.48 -0.48 -0.43 -0.27", "mean, log10 nM": "-0.41", "empty controls": "1 of 18 (3.77)"}
{"CDR-H1": "GFDLEDYGIS", "CDR-H2": "VIYADGRRTAYSDSVK", "CDR-H3": "GNVAGTFDV", "log10 Kd, replicates": "-0.23 -0.37 -0.50 -0.44 -0.47 -0.12", "mean, log10 nM": "-0.36", "empty controls": "0 of 18"}
{"CDR-H1": "GFDLNEYGIS", "CDR-H2": "VIYADGKRTAYSDDVK", "CDR-H3": "GNVAGTFDL", "log10 Kd, replicates": "-0.17 -0.43 -0.58 -0.24 -0.29 -0.64", "mean, log10 nM": "-0.39", "empty controls": "0 of 18"}
{"CDR-H1": "GFDLDEYGIS", "CDR-H2": "VIYADGMRTAYSDSVK", "CDR-H3": "GNTAGTFDT", "log10 Kd, replicates": "0.57 0.42 0.18 0.01 0.26 0.83", "mean, log10 nM": "0.38", "empty controls": "0 of 18"}
{"CDR-H1": "GFDLNEYGIS", "CDR-H2": "VIYADGQRTAYSDSVK", "CDR-H3": "GTNAGTFDV", "log10 Kd, replicates": "-0.43 -0.78 -1.09 -1.23 -1.64 -0.71", "mean, log10 nM": "-0.98", "empty controls": "0 of 18"}
{"CDR-H1": "GFDLDEYGIS", "CDR-H2": "VIYADGKRTAYADSVK", "CDR-H3": "GNTAGTFDI", "log10 Kd, replicates": "-0.97 -0.45 -0.77 -0.74 -0.69 -0.71", "mean, log10 nM": "-0.72", "empty controls": "0 of 18"}
{"CDR-H1": "GFDLNEYGIS", "CDR-H2": "VIYADGMRTAYANDVK", "CDR-H3": "GENAGTFDI", "log10 Kd, replicates": "-0.37 -0.35 -0.34 -0.73 -0.65 -0.26", "mean, log10 nM": "-0.45", "empty controls": "0 of 18"}
{"CDR-H1": "GFDLDEYGIS", "CDR-H2": "VIYADGMRTYYADSVK", "CDR-H3": "GEVAGTFDI", "log10 Kd, replicates": "-0.16 -0.18 -0.63 -0.59 -0.21 -0.63", "mean, log10 nM": "-0.40", "empty controls": "1 of 18 (3.19)"}
{"CDR-H1": "GFDLNEYGIS", "CDR-H2": "VIYADGQRTSYADSVK", "CDR-H3": "GNVAGTFDV", "log10 Kd, replicates": "0.13 0.22 0.06 0.12 -0.08 0.07", "mean, log10 nM": "0.09", "empty controls": "0 of 18"}
{"CDR-H1": "GFDLNEYGIS", "CDR-H2": "VIYADGMRTAYADSVK", "CDR-H3": "GKNAGTFDV", "log10 Kd, replicates": "0.25 0.00 -0.31 -0.17 -0.28 -0.08", "mean, log10 nM": "-0.10", "empty controls": "0 of 18"}
{"CDR-H1": "GFDLDEYGIS", "CDR-H2": "VIYADGKRTAYSDSVK", "CDR-H3": "GETAGTFDI", "log10 Kd, replicates": "0.29 -0.14 -0.07 -0.18 -0.54 -0.08", "mean, log10 nM": "-0.12", "empty controls": "0 of 18"}
{"CDR-H1": "GFDLNEYGIS", "CDR-H2": "VIYADGVRTSYADSVK", "CDR-H3": "GEVAGTFDV", "log10 Kd, replicates": "0.45 -0.40 -0.08 -0.12 0.24 -0.03", "mean, log10 nM": "0.01", "empty controls": "0 of 18"}
{"CDR-H1": "GFDLDEYGIS", "CDR-H2": "VIYADGMRTVYADSVK", "CDR-H3": "GETAGTFDV", "log10 Kd, replicates": "nd 2.96 nd 2.24 0.90 2.63", "mean, log10 nM": "2.18", "empty controls": "0 of 18"}
{"CDR-H1": "GFDLDEYGIS", "CDR-H2": "VIYADGKRTAYVDSVK", "CDR-H3": "GETAGTFDV", "log10 Kd, replicates": "nd 1.27 1.27 nd nd nd", "mean, log10 nM": "1.27", "empty controls": "0 of 18"}
{"CDR-H1": "GFDLNEYGIS", "CDR-H2": "VIYADGMRTAYADDVK", "CDR-H3": "GTNAGTFDM", "log10 Kd, replicates": "-0.06 -0.35 -0.47 -0.71 0.06 -0.29", "mean, log10 nM": "-0.30", "empty controls": "0 of 18"}
{"CDR-H1": "GFDLNEYGIS", "CDR-H2": "VIYADGQRKAYADSVK", "CDR-H3": "GQNAGTFDV", "log10 Kd, replicates": "-0.24 -0.98 -0.76 -1.03 -0.85 -0.67", "mean, log10 nM": "-0.75", "empty controls": "0 of 18"}
{"CDR-H1": "GFDLNEYGIS", "CDR-H2": "VIYADGRRTAYADSVK", "CDR-H3": "GANAGTFDM", "log10 Kd, replicates": "0.19 -0.17 -0.29 -0.42 0.16 0.15", "mean, log10 nM": "-0.06", "empty controls": "0 of 18"}
{"CDR-H1": "GFDLNEYGIS", "CDR-H2": "VIYADGMRQAYADSVK", "CDR-H3": "GENAGTFDV", "log10 Kd, replicates": "-0.45 -0.75 -0.66 -0.82 -0.69 -0.42", "mean, log10 nM": "-0.63", "empty controls": "0 of 18"}
{"CDR-H1": "GFDLNEYGIS", "CDR-H2": "VIYADGMRQAYADSVK", "CDR-H3": "GNTAGTFDV", "log10 Kd, replicates": "0.17 -0.21 0.10 -0.03 0.24 -0.11", "mean, log10 nM": "0.03", "empty controls": "1 of 18 (1.87)"}
{"CDR-H1": "GFDLNEYGIS", "CDR-H2": "VIYADGVRTSYADSVK", "CDR-H3": "GQVAGTFDV", "log10 Kd, replicates": "-0.16 -0.81 -0.15 -0.76 -0.89 -0.58", "mean, log10 nM": "-0.56", "empty controls": "0 of 18"}
{"CDR-H1": "GFDLNEYGIS", "CDR-H2": "VIYADGMRTAYVDDVK", "CDR-H3": "GEVAGTFDV", "log10 Kd, replicates": "-0.29 -0.69 -0.58 -0.68 -0.57 -0.29", "mean, log10 nM": "-0.52", "empty controls": "0 of 18"}
{"CDR-H1": "GFDLNEYGIS", "CDR-H2": "VIYADGKRTAYSDSVK", "CDR-H3": "GENAGTFDM", "log10 Kd, replicates": "0.23 -0.22 -0.39 -0.48 -0.11 0.02", "mean, log10 nM": "-0.16", "empty controls": "0 of 18"}
{"CDR-H1": "GFDLNEYGIS", "CDR-H2": "VIYADGKRTAYSDDVK", "CDR-H3": "GENAGTFDV", "log10 Kd, replicates": "-0.36 0.27 -0.47 -0.62 -0.13 0.06", "mean, log10 nM": "-0.21", "empty controls": "0 of 18"}
{"CDR-H1": "GFDLNEYGIS", "CDR-H2": "VIYADGRRTAYADDVK", "CDR-H3": "GNVAGTFDI", "log10 Kd, replicates": "-0.49 -0.47 -0.66 -0.29 -0.45 -0.12", "mean, log10 nM": "-0.41", "empty controls": "0 of 18"}

3 of these entries, quoted again:

{"CDR-H1": "GFDLNEYGIS", "CDR-H2": "VIYADGVRTSYADSVK", "CDR-H3": "GEVAGTFDV", "log10 Kd, replicates": "0.45 -0.40 -0.08 -0.12 0.24 -0.03", "mean, log10 nM": "0.01", "empty controls": "0 of 18"}
{"CDR-H1": "GFDLNEYGIS", "CDR-H2": "VIYADGMRQAYADSVK", "CDR-H3": "GENAGTFDV", "log10 Kd, replicates": "-0.45 -0.75 -0.66 -0.82 -0.69 -0.42", "mean, log10 nM": "-0.63", "empty controls": "0 of 18"}
{"CDR-H1": "GFDLNEYGIS", "CDR-H2": "VIYADGMRTAYADDVK", "CDR-H3": "GTNAGTFDM", "log10 Kd, replicates": "-0.06 -0.35 -0.47 -0.71 0.06 -0.29", "mean, log10 nM": "-0.30", "empty controls": "0 of 18"}

The parent sequence was in this pool as ten entries: three were never detected, three once, and four in most replicates, with averages from 0.34 to 2.37.
Background: pairings of all heavy chain designs with three empty control strains gave a value in 1% of cases (median 2.08, 5th percentile 0.84). Values in that range, when seen in few replicates, are hard to tell from nonspecific mating. For each scFv, signals with the empty controls are counted beside the result, with their mean in brackets.
In the paper, a design with two or fewer of six values counts as a poor binder.
A sequence measured in both rounds can read differently, since the two assays cover different ranges.